This data set is described as follows: toxicity, Irwin's test. The class given is in vivo. Particulars: i.p.; death of two animals out of three within 48 hours. As for the experimental part: The toxicity of the compounds according to the invention has been determined on male NMRI mice by means of the Irwin's test (S. IRWIN, Psychopharmacologia, 13, (1968), 222-257). Progressive doses of the compound to be tested are administered intraperitoneally to groups of three mice until the lethal dose is reached (dose which causes the death of two animals out of three within 48 hours).

In turn, `CNC(=O)Oc1ccc2c(c1)[C@]1(C)CCN(C)[C@@H]1N2C` [physostigmine, reference compound] returned a Lethal dose of 0.82 mg/kg.

The record behind these values is patent publication US5348956A, “Substituted cyclopropylamino-1,3,5-triazines” (UCB S.A., priority 1991, dated 1994).
